This note sets out measurements from PubChem BioAssay (Tox21).

SMILES strings stand for the structures. Values joined by “and” are separate entries in the source; they are usually repeats but may differ in a detail not shown here. Equal entries are not always repeated. Only a part is listed here, and it is no random draw. Active and inactive are the calls of the source. The call rests on the fitted dose curve; in most records, active means well fitted curve in the direction sought with a large enough effect in the repeat runs; inconclusive means weak or mixed curves; inactive means flat fitted curve, though single readings scatter.
On the % scale 0 is the no-effect control and ±100 the full control effect.

The first assay can be described thus: qHTS assay to test for compound auto fluorescence at 460 nm (blue) in HEK293 cell free culture (AID 720681). Conditions: cell-free medium, autofluorescence 405/460 nm (blue); at 46 µM (top of the series). The source says: U.S. Tox21 Program National Center for Advancing Translational Sciences [NCATS] NIH Chemical Genomics Center [NCGC] U.S. Environmental Protection Agency [EPA] National Institutes of Environmental Health Sciences [NIEHS] National Toxicology Program [NTP] U.S. Food and Drug Administration [FDA] Tox21 Assay Overview: Compound auto fluorescence often interferes with screening of the compound library against various biological targets and signaling pathways. Some of these compounds may have fluorophoric properties. Such properties may interfere with the assay outputs resulting in false positives and/or negatives. To decrease such complications and ensure the compound activities are relevant in terms of biological response, the Tox21 10K compound library was screened for auto fluorescence. From the fluorophores used as reporter signals in our screening assays, the auto fluorescence equivalencies of compounds against three fluorophores have been evaluated: Triamterene, Fluorescein and Rose Bengal sodium for blue, green and red fluorescence, respectively. The fluorescence intensities were measured using Excitation/Emission wavelengths at 405/460nm, 485/535nm and 540/590nm for blue, green and red labels, respectively. This assay includes the blue fluorescence data.
Tox21 Assay Protocol Summary: 5 uL of culture medium (DMEM containing 10% FBS) per well was dispensed into black wall/clear bottom 1536-well plates using a Multidrop Combi Dispenser (ThermoFisher Scientific, Waltham, MA). After 23 nL compound or DMSO vehicle was transferred into assay plate by a pintool work station (Kalypsys, San Diego, CA), fluorescence intensities in the assay plates were measured by an Envision (PerkinElmer, Shelton, CT) plate reader using three labels for measuring blue, green and red fluorescence at […] 460, 535 and 590nm respectively.
As to `NC(=O)Nc1ccc([As](=O)(O)O)cc1`, the fluorescence, % of fluorescent control is inactive: -0.106%.

The assay is the same for the next values; noted with them: cell-free medium, autofluorescence 405/460 nm (blue); at 91.3 µM (top of the series).
For `NC(=O)Nc1ccc([As](=O)(O)O)cc1`, the fluorescence, % of fluorescent control is inactive: 0.0321%.

Staying with this assay, now noted: cell-free medium, autofluorescence 405/460 nm (blue); at 91.3 µM (top of the series) unless noted.
As for `O=[N+]([O-])c1ccc(S(=O)(=O)O)c([N+](=O)[O-])c1`, the fluorescence, % of fluorescent control is inactive: -0.0013%. On to `CC(C)OP(=S)(OC(C)C)SCCNS(=O)(=O)c1ccccc1`, for which the fluorescence, % of fluorescent control is inactive: -0.0424%. On the same count and under the same terms, for `O=[As]c1ccccc1` (stereo not drawn) the value was inactive: -0.0451%; for `CC(C)CCCCCCCOP(OCCCCCCCC(C)C)Oc1ccccc1`, inactive: -0.249%; for `O=P(Cl)(Oc1ccccc1)Oc1ccccc1`, inactive: 0.0104%. Same read-out and setting: next, `CCOP(=S)(CC)Sc1ccccc1` (stereo not drawn): inactive: -0.149%; `COP(=S)(Cl)OC`: inactive: -0.383%. The same measure, in the same setting: for `ClP(Cl)c1ccccc1` the value was inactive: -0.0892%. In the case of `CCCCCCCCCCCCCC[P+](CCCCCC)(CCCCCC)CCCCCC`, the fluorescence, % of fluorescent control is inactive: -0.0458%. On the same count and under the same terms, next, `Cc1cc([N+](=O)[O-])cc([N+](=O)[O-])c1O`: inactive: -1.32% and inactive: -1.31%; `CCCCC(CC)CO[P+](=O)OCC(CC)CCCC` (stereo not drawn): inactive: -0.0171%. Same read-out and setting: next, `N#CSc1ccc([N+](=O)[O-])cc1[N+](=O)[O-]`: inactive: -0.549%; `CN(C(=O)Cc1ccccc1)[C@H]1CC[C@@]2(CCCO2)C[C@@H]1N1CCCC1`: inactive: 0.669% [at 46 µM]; `O=C(OC1CN2CCC1CC2)c1ccccc1` (stereo not drawn): inactive: -0.22% [at 46 µM]. In the case of `CCOC(=O)Cl`, the fluorescence, % of fluorescent control was inactive: 0.046%. Same read-out and setting: for `O=[p+]1oc2ccccc2c2ccccc21` (stereo not drawn) the value was inactive: 0.0106%. Take `Cc1cc([N+](=O)[O-])c(O)c([N+](=O)[O-])c1`: the fluorescence, % of fluorescent control is inactive: -0.964%. In the case of `CN(C(=O)Cc1ccc(Cl)c(Cl)c1)[C@H]1CC[C@@]2(CCCO2)C[C@@H]1N1CCCC1`, the fluorescence, % of fluorescent control is inactive: 0.165% [at 46 µM]. As for `O=P(Cl)(Cl)c1ccccc1`, the fluorescence, % of fluorescent control is inactive: -0.0016%. Turning to `CCCCO[P+](=O)OCCCC`, the fluorescence, % of fluorescent control was inactive: 0.0243% and inactive: -0.0614%. The same measure, in the same setting: for `CN(N=O)C(=N)N[N+](=O)[O-]` the value was inactive: -0.0522%; for `O=C1C2CC=CCC2C(=O)N1SC(Cl)(Cl)C(Cl)Cl` (stereo not drawn), inactive: 0.0036% and inactive: 0.269%; for `CN(C(=O)Cc1cccc2occc12)[C@H]1CC[C@@]2(CCCO2)C[C@@H]1N1CCCC1`, inactive: 0.0387%. On the same count and under the same terms, for `COC(=O)Cl` the value was inactive: 0.134%; for `O=[P+](Oc1ccccc1)Oc1ccccc1`, inactive: -0.118%. On the same count and under the same terms, next, `CCNC(C)Cc1ccc2c(c1)OCO2` (stereo not drawn): inactive: 0.111% [at 95.7 µM].
